Test results reported in US12336981B2, “Compounds and compositions for the inhibition of NAMPT” (Valo Health, Inc., priority 2010, dated 2025).

Protein sequences, listed by entry. Tags and fused reporters are not part of them.
UniProt P43490, whole entry: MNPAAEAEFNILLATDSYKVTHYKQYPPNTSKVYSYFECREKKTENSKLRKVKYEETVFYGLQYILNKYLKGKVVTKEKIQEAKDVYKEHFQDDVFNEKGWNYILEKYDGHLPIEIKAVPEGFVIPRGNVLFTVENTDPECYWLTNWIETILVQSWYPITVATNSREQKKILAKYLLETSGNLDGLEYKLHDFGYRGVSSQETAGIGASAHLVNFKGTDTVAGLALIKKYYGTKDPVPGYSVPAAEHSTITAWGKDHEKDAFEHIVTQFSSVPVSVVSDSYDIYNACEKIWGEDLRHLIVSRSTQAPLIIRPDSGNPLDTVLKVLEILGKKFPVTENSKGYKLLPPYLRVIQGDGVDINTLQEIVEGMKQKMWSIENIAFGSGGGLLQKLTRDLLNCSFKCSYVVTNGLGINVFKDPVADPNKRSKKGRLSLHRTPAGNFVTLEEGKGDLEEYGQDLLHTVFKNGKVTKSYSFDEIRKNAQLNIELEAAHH

Molecular target: NAMPT (Homo sapiens, UniProt P43490)
Assay: Biochemical inhibition assay: NAMPT enzymatic reaction, NMN quantified by mass spectrometry
Details: read-out: Biochem IC50 uM

O=C(NCc1ccc(S(=O)(=O)c2ccc(N3CCOCC3)nc2)cc1)c1cnc2[nH]ncc2c1
IC50: 0.0057 µM
